# Assay results taken from patent US7326422B2, “Dissolvable oxides for biological applications” (DelSiTech Oy, priority 1996, dated 2008).
# Experiment: Toremifene loaded silica-xerogel discs in vivo: implant remaining and 3H-toremifene activity
# Parameters: species or system mice (C57B1)
# Conditions: after 42 days, subcutaneous silica-xerogel disc, mice
# Description: Sixty female mice (C57B1, Denmark) with the average weight of about 19.6 g (SD 1.2) were studied. The animals were divided into two experimental groups (5 mice in each group): a toremifene treated silica-xerogel group and untreated silica-xerogel group. The animals were treated for 7, 14, 21, 28, 35, and 42 days. The ^3H-toremifene dose was about 80 μCi/kg (0.8 μCi/implant); toremifene citrate, 350 mg/kg (appr. 3.4 mg/implant); and silica gel, about 1.53 g/kg body weight. A toremifene loaded silica-xerogel disc was implanted subcutaneously an each side of the backbone.
# After a predetermined period of time the silica-xerogel discs on the left side of the backbone were explanted together with the surrounding tissue, fixed in 70% ethanol, and embedded in Technovit (Algol). Sections of 20 μm were stained with toluidine blue. Samples of liver, kidney, and lymph node were fixed in buffered formaldehyde (Merck) and embedded in paraffin. Sections of 6 μm were stained with hematoxylin eosin. All tissue samples were evaluated using light microscopy. […] Their weights were determined and the percentage of implant remaining at each point was calculated.
# To determine the amount of toremifene remaining in the implants, the dried discs were dissolved in 0.1 N NaOH and the activity was measured in a liquid scintillation counter (model 81000, LKB-Wallac, Turku, Finland). […]
substance,measurement,value
^3H-toremifene,amount remaining in the implant,about 16%
